Test results reported in US4430324A (priority 1982, dated 1984).

Legend:
rat caries study = assay type: in vivo, Osborne-Mendel rats; settings: 1000 ppm F^- topically, 21 days, severe lesions (B & C)
[1] = dissolution of hydroxyapatite discs following fluoride treatment; settings: 1000 ppm F^-, means of triplicate experiments

In the case of sodium monofluorophosphate, the “% Reduction (caries, vs water control)” value (rat caries study) is reported as 29.7%, the Caries/Rat (rat caries study; control 5.25, critical difference 0.649 at 95% confidence) is reported as 3.69 and the “% Reduction in Dissolution” value ([1]; pH 4.0) is reported as 26%. For the same substance, the “% Reduction in Dissolution” value ([1]; pH 5.0) was 23%, the “% Reduction in Dissolution” value ([1]; pH 6.0) was 22% and the “% Reduction in Dissolution” value ([1]; pH 7.0) was 20%.
